# Test results taken from article PMC11254172 (International Journal for Parasitology: Drugs and Drug …, 2024).
# Assays:
# [1] = tested on: human foreskin fibroblasts (HFF); conditions: resazurin reduction assay
# [2] = tested on: T. gondii TgShSp1 oocysts; conditions: for Number of pregnant mice / Fertility rate (%) / Total number of pups/group: CD1 mice, 100 TgShSp1 oocysts; for Postnatal mortality rate / Neonatal mortality rate: pups; for Postnatal mortality rate: until 30 days p.p.; for Neonatal mortality rate: within first 2 days after birth; for Number of seronegative mice: n = 12; for Seropositive for Tg (number of mice): 12 mice/group, serum IgG ELISA
# [3] = tested on: N. caninum NcSpain-7 tachyzoites; conditions: in vivo
# [4] = 20 mg/kg/day x 5 days, real-time PCR
smiles,measurement,setting,value
CC(C)(CO)Cn1nc(-c2ccc3cc(OC4CC4)ccc3c2)c(C(N)=O)c1N [BKI-1708],Concentrations at which HFF viability was not impaired (up to),[1],up to 25 μM
same,HFF viability not affected,[1],>25 µM
same,Vertical transmission rate (%),[2]; 5 mg/kg/day oral x 5 days,98%
same,Number of pregnant mice,[2]; 5 mg/kg/day oral x 5 days from 2 days post-infection,11/12
same,Fertility rate (%),[2]; 5 mg/kg/day oral x 5 days,91.6%
same,Total number of pups/group,[2]; 5 mg/kg/day oral x 5 days,132
same,Postnatal mortality rate,[2]; 5 mg/kg/day oral x 5 days,1.3%
same,Neonatal mortality rate,[2]; 5 mg/kg/day oral x 5 days,43.1%
same,Cerebral parasite load in dams and non-pregnant mice vs positive control,"[2]; 5 mg/kg/day x 5 days, real-time PCR",less profoundly diminished
same,Anti-Toxoplasma IgG titers vs non-treated positive control,"[2]; 5 mg/kg/day, ELISA",similar
same,Number of seronegative mice,[2]; 5 mg/kg/day,2
same,Seropositive for Tg (number of mice),[2]; 5 mg/kg,10
same,Vertical transmission rate (%),[2]; 20 mg/kg/day oral x 5 days,16%
same,Number of pregnant mice,[2]; 20 mg/kg/day oral x 5 days from 2 days post-infection,7/12
same,Fertility rate (%),[2]; 20 mg/kg/day oral x 5 days,58.3%
same,Total number of pups/group,[2]; 20 mg/kg/day oral x 5 days,90
same,Postnatal mortality rate,[2]; 20 mg/kg/day oral x 5 days,1.1%
same,Neonatal mortality rate,[2]; 20 mg/kg/day oral x 5 days,0%
same,Reduction of the numbers of congenitally infected pups compared to the controls,"[2]; 20 mg/kg/day x 5 days, T. gondii",84%
same,Cerebral and ocular parasite loads in non-pregnant mice and dams vs control groups,[2]; [4],significantly reduced
same,Cerebral parasite load in dams and non-pregnant mice vs positive control,[2]; [4],highly reduced
same,"Anti-Toxoplasma IgG response vs positive control, dams","[2]; 20 mg/kg/day, ELISA, dams",but not in dams
same,"Anti-Toxoplasma IgG response vs positive control, non-pregnant mice","[2]; 20 mg/kg/day, ELISA, non-pregnant mice",significantly decreased
same,Number of seronegative mice,[2]; 20 mg/kg/day,1
same,Seropositive for Tg (number of mice),[2]; 20 mg/kg,11
same,Fertility rate (%),"[3]; female, BALB/c, mouse",57.1%
same,Number of pregnant mice,"[3]; female, BALB/c, mouse",8/14
same,Total number of pups/group,"[3]; female, BALB/c, mouse",46
same,Cerebral parasitic burden in pregnant and non-pregnant mice vs positive control,[3],evidently reduced
same,Impact of treatment on fertility or reproductive parameters,[3],no impact on fertility or reproductive parameters
same,Mice in which Neospora-specific IgG could not be detected,[3],2 of the 14
same,Neonatal mortality rate,[3],8.7%
same,PCR status of surviving pups,[3],all surviving pups were PCR-negative
same,Postnatal mortality rate,[3],33% and 33.4%
same,Reduction of the numbers of congenitally infected pups compared to the controls,[3],62%
same,Seropositive for Nc (number of mice),[3],12

# Several values for one entry are separate records, joined by “and”; a condition that tells them apart may be missing. Identical values can stand only once. Like-named read-outs stand apart in the source and are kept apart here.
